For this data set, the target named is AP2 adaptor protein complex (endogenous).

B1: kinase dead PIPKIγ635 (protein)
chain: MELEVPDEAESAEAGAVPSEAAWAAESGAAAGLAQKKAAPTEVLSMTAQPGPGHGKKLGHRGVDASGETTYKKTTSSTLKGAIQLGIGYTVGHLSSKPERDVLMQDFYVVESIFFPSEGSNLTPAHHFQDFRFKTYAPVAFRYFRELFGIRPDDYLYSLCNEPLIELSNPGASGSLFYVTSDDEFIIKTVMHKEAEFLQKLLPGYYMNLNQNPRTLLPKFYGLYCVQSGGKNIRVVVMNNILPRVVKMHLKFDLKGSTYKRRASKKEKEKSFPTYKDLDFMQDMPEGLLLDADTFSALVKTLQRDCLVLESFKIMDYSLLLGVHNIDQHERERQAQGAQSTSDEKRPVGQKALYSTAMESIQGGAARGEAIESDDTMGGIPAVNGRGERLLLHIGIIDILQSYRFIKKLEHTWKALVHDGDTVSVHRPSFYAERFFKFMSNTVFRKNSSLKSSPSKKGRGGALLAVKPLGPTAAFSASQIPSEREEAQYDLRGARSYPTLEDEGRPDLLPCTPPSFEEATTASIATTLSSTSLSIPERSPSETSEQPRYRRRTQSSGQDGRPQEEPPAEEDLQQITVQVEPACSVEIVVPKEEDAGVEASPAGASAAVEVETASQASDEEGAPASQASDEEDAPA
On to B1, for which the “transferrin endocytosis (MDCK stable line)” value was “had no appreciable effect on transferrin endocytosis”.

B2: HA-tagged PIPKIγ661 Ser645Phe (protein)
chain: MELEVPDEAESAEAGAVPSEAAWAAESGAAAGLAQKKAAPTEVLSMTAQPGPGHGKKLGHRGVDASGETTYKKTTSSTLKGAIQLGIGYTVGHLSSKPERDVLMQDFYVVESIFFPSEGSNLTPAHHFQDFRFKTYAPVAFRYFRELFGIRPDDYLYSLCNEPLIELSNPGASGSLFYVTSDDEFIIKTVMHKEAEFLQKLLPGYYMNLNQNPRTLLPKFYGLYCVQSGGKNIRVVVMNNILPRVVKMHLKFDLKGSTYKRRASKKEKEKSFPTYKDLDFMQDMPEGLLLDADTFSALVKTLQRDCLVLESFKIMDYSLLLGVHNIDQHERERQAQGAQSTSDEKRPVGQKALYSTAMESIQGGAARGEAIESDDTMGGIPAVNGRGERLLLHIGIIDILQSYRFIKKLEHTWKALVHDGDTVSVHRPSFYAERFFKFMSNTVFRKNSSLKSSPSKKGRGGALLAVKPLGPTAAFSASQIPSEREEAQYDLRGARSYPTLEDEGRPDLLPCTPPSFEEATTASIATTLSSTSLSIPERSPSETSEQPRYRRRTQSSGQDGRPQEEPPAEEDLQQITVQVEPACSVEIVVPKEEDAGVEASPAGASAAVEVETASQASDEEGAPASQASDEEDAPATDIYFPTDERSWVYFPLHYSAQAPPA
Consider B2, for which the “transferrin endocytosis (MDCK stable line)” value is recorded as “also had a stimulatory effect in MDCK cells, but to a greater extent than that of wild-type PIPKIγ661”.

These data come from patent US20070161060.
